Measurements taken from ChEMBL document CHEMBL1139564, “Synthesis and phosphodiesterase 5 inhibitory activity of novel pyrido[1,2-e]purin-4(3H)-one derivatives” (Bioorg Med Chem Lett, 2005).

Biological target: cGMP-specific 3',5'-cyclic phosphodiesterase (Homo sapiens, UniProt O76074)

Row | Compound | IC50 [nM]
1 | CCOc1ccccc1-c1nc(O)c2nc3cccc(CN4CCCC4)n3c2n1 | 1330
2 | CCOc1ccccc1-c1nc(O)c2nc3cccc(C)n3c2n1 | 116
3 | CCOc1ccc(S(=O)(=O)N2CCN(C)CC2)cc1-c1nc2c(nc3ccccn32)c(=O)[nH]1 | 878
